# scFv variants of Ab-14 (heavy chain) against a SARS-CoV-2 spike peptide

Values reported by Engelhart et al. 2022, doi:10.1038/s41597-022-01779-4 (FLAb copy).

Target: peptide PDVDLGDISGINAS, taken from heptad repeat 2 (HR2) of SARS-CoV-2 spike.

The variants keep the light chain, the linker and the frameworks of Ab-14 (scFv order VH, a (GGGGS)3 linker, VL).
VH: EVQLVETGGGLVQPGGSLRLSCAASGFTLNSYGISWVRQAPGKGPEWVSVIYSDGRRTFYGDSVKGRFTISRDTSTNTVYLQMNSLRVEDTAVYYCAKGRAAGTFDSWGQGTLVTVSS
VL: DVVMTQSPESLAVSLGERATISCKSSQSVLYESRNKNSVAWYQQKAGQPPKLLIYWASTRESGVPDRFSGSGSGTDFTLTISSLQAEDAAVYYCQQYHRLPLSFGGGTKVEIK

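The parent was found by panning a naive human phage display library on the peptide. The library (AAYL49) carries one to three amino acid substitutions per variant, with no insertions or deletions. In AlphaSeq, yeast of one mating type display the scFv and yeast of the other type display the target. Binding brings cells together so that they mate, and sequencing counts the barcode pairs among the diploids. A regression on co-assayed BCL2-family reference pairs converts the normalised counts of each replicate to an apparent Kd. There are three technical replicates.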

Each variant is given by its three heavy chain CDRs, as the data file delimits them; those of the parent are GFTLNSYGIS, VIYSDGRRTFYGDSVK, GRAAGTFDS. All variants listed here change S53 of the VH, counted from its first residue. Scale: log10 of Kd in nM, estimated from mating counts; low values are strong binders. Replicates are averaged; those with no signal do not enter the mean. "ND" marks a missing value. The strain was present, yet no cells mated with the target were sequenced in that replicate, which points to weak or no binding. Background: pairings of library AAYL49 with three empty control strains gave a value in 15% of cases (median 4.06, 5th percentile 2.83). Values in that range, when seen in few replicates, are hard to tell from nonspecific mating.

With GFTLNSYGIQ / VIYPDGRRTFYGDSSK / GRAAGTFDS the result was ND, ND, ND. The variant GFTLNSYGIS / VIYADGRTTFYMDSVK / GRAAGTFDS gave 0.98, 1.08, 1.09 (mean 1.05). The variant GFTLNYYGIS / VIYEDGRRNFYGDSVK / GRAAGTFDS gave ND, 4.86, ND. The variant GFTLNSYGIS / VIYEDGRRTFYGDHVK / GRAAGTFGS gave ND, ND, ND. With GFTLNSYGIS / VIYQDSRRTFYGCSVK / GRAAGTFDS the result was ND, ND, ND. With GFTLNSYGGS / VIYYDGRRTFYGDSVK / GRAAGQFDS the result was ND, ND, ND. With GFTLNSYGIA / VVYHDGRRTFYGDSVK / GRAAGTFDS the result was ND, ND, ND.

For GFTLNSKGIS / VIYHDGRRTFYGDSVK / RRAAGTFDS, the assay gave ND, ND, ND. With GFTLNSYGIF / PIYMDGRRTFYGDSVK / GRAAGTFDS the result was ND, 4.56, 4.64 (mean 4.60). The variant GFTLNSYGIS / VIYADGFWTFYGDSVK / GRAAGTFDS gave ND, ND, 2.60. For GFTLMSYGIS / VIYQDGRRTFYGDSVK / GNAAGTFDS, the assay gave ND, 2.87, 4.10 (mean 3.49). For GFTLNTYGIS / VIYLDGRRTFYGDSVK / LRAAGTFDS, the assay gave ND, ND, ND. For GFTLNSYGIS / VIYEDGRRTFYGDSVK / IRAAGTGDS, the assay gave 3.98, 4.04, ND (mean 4.01). The variant GFTLNSYGIS / VIYYEGRRTFYGDSPK / GRAAGTFDS showed ND, ND, ND.

For GFTLQSYGIS / VIYQDGRRTFYGDSVK / GRKAGTFDS, the assay gave 2.24, 2.22, 2.34 (mean 2.27). With GFTLNSYGIS / VIYIDYRRTWYGDSVK / GRAAGTFDS the result was ND, ND, ND. The variant GFTLNSYGIS / VIYGDGRRTFYGDLVK / GRAADTFDS gave ND, ND, ND. The variant GFTLNSYGVS / VIYADGRRTFYGDKVK / GRAAGTFDS gave 4.45, ND, ND. For GFTLNSYGIS / VIYHDGDRTDYGDSVK / GRAAGTFDS, the assay gave 3.83, ND, ND. The variant GFTLNSYGIS / VIYFDGRRTFQGYSVK / GRAAGTFDS showed ND, ND, ND. With GFTLNSYGIS / VIYPDGRRTNYGDSFK / GRAAGTFDS the result was 2.23, 2.11, 2.15 (mean 2.16).

The variant GFTLNSYGIS / DIYNDGRRGFYGDSVK / GRAAGTFDS showed ND, ND, 4.03. The variant GFTLNSYGIS / VIYQDGRRTFYGDSVK / GRAAGDFDS showed ND, ND, ND. With GFTLNYYGIS / VIYCDGRRTFYGDSVK / GRFAGTFDS the result was ND, 4.83, ND. The variant GFTDNSYGIS / VIYGDGRRTFQGDSVK / GRAAGTFDS gave ND, ND, ND. With GFTLNSYGIS / VIYGDGRRKAYGDSVK / GRAAGTFDS the result was 1.59, 1.86, 2.02 (mean 1.82). For GFTLNSYGIM / VIYGDGRRTFYGISVK / GRAAGTFDS, the assay gave ND, ND, ND. The variant GFTLNSYGIG / VIYLDGRKTFYGDSVK / GRAAGTFDS showed ND, ND, ND.

The variant GFTLNSYGIT / VIYWDGRRTFYGDSVK / GRAAGRFDS gave ND, ND, ND. The variant GFTLNSYSIS / VIYMDGRWTFYGDSVK / GRAAGTFDS gave ND, ND, ND.